Results published in patent publication US20230157952A1, “METHOD FOR IMPROVING THE STABILITY OF A PHARMACEUTICAL COMPOSITION COMPRISING A HIGH PENETRATION DRUG, AND THE PHARMACEUTICAL COMPOSITION OBTAINED THEREFROM” (Techfields Inc., priority 2020, published 2023).

Tests used:
Assay type in all cases: physicochemical
[1] = Stability of the pure HPDs (dry solid) at 25° C./RH 60%; conditions: for Purity: pure HPD, 25° C./RH 60%
[2] = Effect of pH value on the stability of the solution (purity); conditions: for Purity(%) from day 0-28: 25° C.
[3] = Effect of temperature (and pH) on the stability of the solution (purity)
Source text: The results are illustrated in the following.

`Br.CCN(CC)CCOC(=O)[C@H](C)c1ccc(CC(C)C)cc1` (racemic) [C-1-4, 2-(diethylamino)ethyl (R,S)-2-(p-isobutylphenyl)propionate•HBr salt] showed a Purity ([1]; 3 month) of 98.4 ± 0.1, a Purity ([1]; 6 month) of 98.5 ± 0.3 and a Purity ([1]; 9 month) of 98.3 ± 0.1. The Purity ([1]; 12 month) was 98.3 ± 0.3, the Purity ([1]; 18 month) was 98.2 ± 0.4 and the Purity ([1]; Day 0) was 98.5 ± 0.2.

With H-Tyr-Gly-Gly-Phe-Leu-OCH2CH3.HCl the “pH at which the solution is stable” value ([2]; 5% solution in 25% ethanol at 25° C.) was 3-6 and the “Time the solution can be stored at room temperature” value ([2]; 5% solution in 25% ethanol, pH 3-6) was “about 3 months”.

For `CCN(CC)CCOC(=O)[C@H](C)c1ccc2cc(OC)ccc2c1.Cl` (racemic), the “Purity(%) at day 0” value ([3]; pH 1.02, 7% solution in water) was 98.6 ± 0.2%, the “Purity(%) at day 0” value ([3]; pH 2.09, 7% solution in water) was 98.6 ± 0.3% and the “Purity(%) at day 21 (5° C.)” value ([3]; pH 2.09, 7% solution in water) was 98.1 ± 0.2%. The “Purity(%) at day 0” value ([3]; pH 3.00, 7% solution in water) was 98.7 ± 0.2%, the “Purity(%) at day 21 (5° C.)” value ([3]; pH 3.00, 7% solution in water) was 98.4 ± 0.2% and the “Purity(%) at day 0” value ([3]; pH 3.68, 7% solution in water) was 98.8 ± 0.3%. The “Purity(%) at day 21 (5° C.)” value ([3]; pH 3.68, 7% solution in water) was 98.6 ± 0.1%, the “Purity(%) at day 21 (25° C.)” value ([3]; pH 3.68, 7% solution in water) was 98.0 ± 0.1% and the “Purity(%) at day 0” value ([3]; pH 4.07, 7% solution in water) was 98.7 ± 0.4%. The “Purity(%) at day 21 (5° C.)” value ([3]; pH 4.07, 7% solution in water) was 98.7 ± 0.1%, the “Purity(%) at day 21 (25° C.)” value ([3]; pH 4.07, 7% solution in water) was 98.3 ± 0.2% and the “Purity(%) at day 0” value ([3]; pH 4.35, 7% solution in water) was 98.8 ± 0.3%. The “Purity(%) at day 21 (5° C.)” value ([3]; pH 4.35, 7% solution in water) was 98.7 ± 0.1%, the “Purity(%) at day 21 (25° C.)” value ([3]; pH 4.35, 7% solution in water) was 98.2 ± 0.1% and the “Purity(%) at day 0” value ([3]; pH 4.67, 7% solution in water) was 98.8 ± 0.3%. For the same molecule, the “Purity(%) at day 21 (5° C.)” value ([3]; pH 4.67, 7% solution in water) was 98.7 ± 0.1%, the “Purity(%) at day 21 (25° C.)” value ([3]; pH 4.67, 7% solution in water) was 98.2 ± 0.2% and the “Purity(%) at day 0” value ([3]; pH 4.95, 7% solution in water) was 98.7 ± 0.2%. The “Purity(%) at day 21 (5° C.)” value ([3]; pH 4.95, 7% solution in water) was 97.9 ± 0.2%, the “Purity(%) at day 0” value ([3]; pH 5.98, 7% solution in water) was 98.8 ± 0.3% and the “Purity(%) at day 0” value ([3]; pH 8.01, 7% solution in water) was 98.3 ± 0.3%.

For `CC(C)Cc1ccc([C@@H](C)C(=O)OCCN(C)C)cc1.Cl` (racemic) [C-5, 2-(dimethylamino)ethyl (R,S)-2-(p-isobutylphenyl)propionate•HCl salt], the Purity ([1]; 9 month) was 98.2 ± 0.1, the Purity ([1]; Day 0) was 98.2 ± 0.1 and the “Purity(%) from day 0-28” value ([2]; day 0, pH 1.0, 7% in 25% ethanol) was 98.0 ± 0.3%. For the same molecule, the “Purity(%) from day 0-28” value ([2]; day 0, pH 2.0, 7% in 25% ethanol) was 98.2 ± 0.4%, the “Purity(%) from day 0-28” value ([2]; day 0, pH 3.0, 7% in 25% ethanol) was 98.3 ± 0.3% and the “Purity(%) from day 0-28” value ([2]; day 0, pH 3.7, 7% in 25% ethanol) was 98.5 ± 0.4%. For the same molecule, the “Purity(%) from day 0-28” value ([2]; day 0, pH 4.0, 7% in 25% ethanol) was 98.5 ± 0.3%, the “Purity(%) from day 0-28” value ([2]; day 0, pH 4.3, 7% in 25% ethanol) was 98.6 ± 0.3% and the “Purity(%) from day 0-28” value ([2]; day 0, pH 4.6, 7% in 25% ethanol) was 98.5 ± 0.2%. The “Purity(%) from day 0-28” value ([2]; day 0, pH 5.0, 7% in 25% ethanol) was 98.5 ± 0.3%, the “Purity(%) from day 0-28” value ([2]; day 0, pH 6.0, 7% in 25% ethanol) was 98.4 ± 0.3% and the “Purity(%) from day 0-28” value ([2]; day 0, pH 7.0, 7% in 25% ethanol) was 98.2 ± 0.3%. For the same molecule, the “Purity(%) from day 0-28” value ([2]; day 0, pH 8.0, 7% in 25% ethanol) was 98.0 ± 0.3%.

`Br.CCN(CC)CCOC(=O)C(C)c1ccc(-c2ccccc2)c(F)c1` (centres unmarked) [B-1-4, 2-(diethylamino)ethyl 2-(2-fluoro-4-biphenyl)propionate•HBr salt] gave a Purity ([1]; 3 month) of 98.5 ± 0.1, a Purity ([1]; 6 month) of 98.4 ± 0.1 and a Purity ([1]; 12 month) of 98.3 ± 0.1.

With `CCN(CC)CCOC(=O)[C@@H](C)c1ccc2cc(OC)ccc2c1.Cl` [A-1-2, 2-(diethylamino)ethyl (S)-2-(6-methoxy-2-naphthyl) propionate•HCl salt] the Purity ([1]; 3 month) was 98.5 ± 0.3, the Purity ([1]; 6 month) was 98.4 ± 0.2 and the Purity ([1]; 12 month) was 98.3 ± 0.2. It also gave a Purity ([1]; 18 month) of 98.2 ± 0.2.

For `CCN(CC)CCOC(=O)C(C)c1ccc(-c2ccccc2)c(F)c1.Cl` (racemic), the “Purity(%) at day 0” value ([3]; 7% solution in water, pH 1.0, day 0) was 98.2 ± 0.3%, the “Purity(%) at day 0” value ([3]; 7% solution in water, pH 2.0, day 0) was 98.3 ± 0.3% and the “Purity(%) at day 21 (5° C.)” value ([3]; 7% solution in water, pH 2.0, day 21, 5° C.) was 97.8 ± 0.2%. The “Purity(%) at day 0” value ([3]; 7% solution in water, pH 3.0, day 0) was 98.4 ± 0.2%, the “Purity(%) at day 21 (5° C.)” value ([3]; 7% solution in water, pH 3.0, day 21, 5° C.) was 98.0 ± 0.2% and the “Purity(%) at day 0” value ([3]; 7% solution in water, pH 3.7, day 0) was 98.5 ± 0.3%. For the same molecule, the “Purity(%) at day 21 (5° C.)” value ([3]; 7% solution in water, pH 3.7, day 21, 5° C.) was 98.2 ± 0.1%, the “Purity(%) at day 0” value ([3]; 7% solution in water, pH 4.0, day 0) was 98.5 ± 0.2% and the “Purity(%) at day 21 (5° C.)” value ([3]; 7% solution in water, pH 4.0, day 21, 5° C.) was 98.3 ± 0.1%. The “Purity(%) at day 21 (25° C.)” value ([3]; 7% solution in water, pH 4.0, day 21, 25° C.) was 97.7 ± 0.2%, the “Purity(%) at day 0” value ([3]; 7% solution in water, pH 4.3, day 0) was 98.5 ± 0.3% and the “Purity(%) at day 21 (5° C.)” value ([3]; 7% solution in water, pH 4.3, day 21, 5° C.) was 98.3 ± 0.1%. For the same molecule, the “Purity(%) at day 21 (25° C.)” value ([3]; 7% solution in water, pH 4.3, day 21, 25° C.) was 97.8 ± 0.1%, the “Purity(%) at day 0” value ([3]; 7% solution in water, pH 4.6, day 0) was 98.4 ± 0.2% and the “Purity(%) at day 21 (5° C.)” value ([3]; 7% solution in water, pH 4.6, day 21, 5° C.) was 98.3 ± 0.1%. The “Purity(%) at day 21 (25° C.)” value ([3]; 7% solution in water, pH 4.6, day 21, 25° C.) was 97.7 ± 0.1%, the “Purity(%) at day 0” value ([3]; 7% solution in water, pH 5.0, day 0) was 98.5 ± 0.3% and the “Purity(%) at day 0” value ([3]; 7% solution in water, pH 6.0, day 0) was 98.3 ± 0.3%. For the same molecule, the “Purity(%) at day 0” value ([3]; 7% solution in water, pH 7.0, day 0) was 98.1 ± 0.4% and the “Purity(%) at day 0” value ([3]; 7% solution in water, pH 8.0, day 0) was 98.0 ± 0.4%.

Work on “H-Tyr-Gly-Gly-Phe-Leu-OCH(CH3)2.HCl [U-1]” yielded a Purity ([1]; 3 month) of 98.5 ± 0.2, a Purity ([1]; 6 month) of 98.4 ± 0.2 and a Purity ([1]; 9 month) of 98.3 ± 0.2. It also gave a Purity ([1]; 12 month) of 98.2 ± 0.3, a Purity ([1]; 18 month) of 98.2 ± 0.3 and a Purity ([1]; 24 month) of 98.0 ± 0.2. The Purity ([1]; Day 0) was 98.5 ± 0.2 and the “Stability of the pure powder” value ([1]; room temperature (25° C./RH 60%)) was “very stable”.
